Here are results for one molecule from patent publication US9169279B2, “Crystallization method and bioavailability” (THAR PHARMACEUTICALS, INC., priority 2009, dated 2015).

The data set in a line: Dog PK study: zoledronic acid in serum after IV or oral capsule dosing, enteric or non-enteric coated, with or without excess coformer (LC/MS/MS). The class given is in vivo. Conditions: beagle, saline solution, read-out: Average serum concentration of 5 dogs.

In the case of `O=P(O)(O)C(O)(Cn1ccnc1)P(=O)(O)O` [Zoledronic acid, (1-hydroxy-2-imidazol-1-yl-1-phosphono-ethyl)phosphonic acid], the concentration at 20 min (intravenous, 0.12 mg/kg, Leg 18, 15 min IV infusion 0.12 mg/kg, Time 0.3333 hour) came out at 502 ng/mL. The concentration at 0.5 hour (iv, 0.05 mg/kg, zoledronic acid in dog serum, Leg 1, IV 0.05 mg/kg, Time 0.5 hour) stood at 111 ng/mL.
